Laboratory results published in patent US4113858A, “Novel compounds, compositions and methods of their use” (St. Luke's Hospital, priority 1976, dated 1978).
Ends that are not written are not given here.

System: Guinea Pigs
Details: Group 6: challenge 150 μg BP; 2.5 mg daily for 10 days from the day hind leg paralysis is observed; listed as compound (V)

## FSWQKFSWQKFSWQKFSWQKG [Compound V, H -- Phe -- Ser -- Trp -- Gln -- Lys]4 Gly -- OH]
  Reversal clinical EAE: sufficient to reverse tremor and hind leg paralysis in addition to lethargy and weight loss in the five treated animals
